Tests used:
[1] = % Unbound in plasma, human; format: in vitro ADME
mA1AR = mA1AR (Mus musculus (Mouse), UniProt Q60612); assay: Competition binding at mA1AR, HEK293 cell membranes; settings: read-out: A1AR % inhibition, mouse data (m)
[2] = % Unbound in plasma, mouse; format: in vitro ADME
% Unbound in plasma, rat = format: in vitro ADME
Aqueous solubility = format: physicochemical; settings: aqueous medium, pH 7.4, aqueous buffer; read-out: Aq. Solubility (pH 7.4, μg/mL)
hA3AR = hA3AR (Homo sapiens (Human), UniProt P0DMS8); assay: Radioligand binding at hA3AR, CHO cell membranes, [125I]I-AB-MECA
[3] = test system: CYP1A2, CYP2C9, CYP2C19, CYP2D6, CYP3A4; assay: Inhibition of 5 CYP isozymes; format: in vitro ADME; settings: human
Text: In vitro stability parameters for selected compounds are set forth in Table 6, in accordance with an embodiment of the invention.

Sequences of proteins named here, by UniProt entry; tags and fusion partners are left off.
UniProt Q60612, whole entry: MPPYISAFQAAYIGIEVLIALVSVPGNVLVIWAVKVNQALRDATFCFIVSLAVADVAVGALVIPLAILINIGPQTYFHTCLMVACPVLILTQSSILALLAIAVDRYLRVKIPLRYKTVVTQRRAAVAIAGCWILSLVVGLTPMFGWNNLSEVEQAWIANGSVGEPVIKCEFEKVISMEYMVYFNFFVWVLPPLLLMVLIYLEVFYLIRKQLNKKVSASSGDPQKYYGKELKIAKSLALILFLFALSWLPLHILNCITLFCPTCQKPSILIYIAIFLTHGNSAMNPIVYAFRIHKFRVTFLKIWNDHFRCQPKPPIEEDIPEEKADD
UniProt P0DMS8, whole entry: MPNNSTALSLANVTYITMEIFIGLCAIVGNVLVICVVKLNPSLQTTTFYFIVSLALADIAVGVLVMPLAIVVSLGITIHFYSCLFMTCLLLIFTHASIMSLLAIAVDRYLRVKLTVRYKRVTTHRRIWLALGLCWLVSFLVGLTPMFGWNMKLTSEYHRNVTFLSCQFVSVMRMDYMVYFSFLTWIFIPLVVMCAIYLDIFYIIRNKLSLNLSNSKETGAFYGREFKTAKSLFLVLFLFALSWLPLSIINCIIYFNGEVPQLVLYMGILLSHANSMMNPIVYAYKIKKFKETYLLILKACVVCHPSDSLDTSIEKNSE

For CNC(=O)[C@@]12C[C@@H]1[C@@H](n1cnc3c(NC)nc(C#Cc4cnccn4)nc31)[C@H](O)[C@@H]2O [Compound 7, (1S,2R,3S,4R,5S)-2,3-Dihydroxy-N-methyl-4-(6-(methylamino)-2-(pyrazin-2-ylethynyl)-9H-purin-9-yl)bicyclo[3.1.0]hexane-1-carboxamide], the “% Unbound in plasma: Human” value [1] was 61.2%, the inhibition at 10 µM (mA1AR) was 57% and the “% Unbound in plasma: Mouse” value [2] was 59.1%. The “% Unbound in plasma: Rat” value (% Unbound in plasma, rat) was 57.5% and the solubility (Aqueous solubility) was greater than 208 µg/mL.

CNC(=O)[C@@]12C[C@@H]1[C@@H](n1cnc3c(NC)nc(C#Cc4cc[nH]n4)nc31)[C@H](O)[C@@H]2O [Compound 9, (1S,2R,3S,4R,5S)-4-(2-((1H-Pyrazol-3-yl)ethynyl)-6-(methylamino)-9H-purin-9-yl)-2,3-dihydroxy-N-methylbicyclo[3.1.0]hexane-1-carboxamide] gave a Ki (hA3AR) of 2.23 ± 0.18 nM.

In the case of CNC(=O)[C@@]12C[C@@H]1[C@@H](n1cnc3c(NC)nc(C#Cc4ccco4)nc31)[C@H](O)[C@@H]2O [Compound 17, (1S,2R,3S,4R,5S)-4-(2-(Furan-2-ylethynyl)-6-(methylamino)-9H-purin-9-yl)-2,3-dihydroxy-N-methylbicyclo[3.1.0]hexane-1-carboxamide], the IC50 [3] is reported as greater than 10000 nM.

— US10577368B2 (The United States of America, as represented by the …, priority 2013, dated 2020)
